Columns and labels:
Details in all cases: NCI-H1975
[1] = biological target: T1, 1-phosphatidylinositol 4,5-bisphosphate phosphodiesterase gamma-1 (Homo sapiens) (UniProt P19174)
T1 sequence (whole entry): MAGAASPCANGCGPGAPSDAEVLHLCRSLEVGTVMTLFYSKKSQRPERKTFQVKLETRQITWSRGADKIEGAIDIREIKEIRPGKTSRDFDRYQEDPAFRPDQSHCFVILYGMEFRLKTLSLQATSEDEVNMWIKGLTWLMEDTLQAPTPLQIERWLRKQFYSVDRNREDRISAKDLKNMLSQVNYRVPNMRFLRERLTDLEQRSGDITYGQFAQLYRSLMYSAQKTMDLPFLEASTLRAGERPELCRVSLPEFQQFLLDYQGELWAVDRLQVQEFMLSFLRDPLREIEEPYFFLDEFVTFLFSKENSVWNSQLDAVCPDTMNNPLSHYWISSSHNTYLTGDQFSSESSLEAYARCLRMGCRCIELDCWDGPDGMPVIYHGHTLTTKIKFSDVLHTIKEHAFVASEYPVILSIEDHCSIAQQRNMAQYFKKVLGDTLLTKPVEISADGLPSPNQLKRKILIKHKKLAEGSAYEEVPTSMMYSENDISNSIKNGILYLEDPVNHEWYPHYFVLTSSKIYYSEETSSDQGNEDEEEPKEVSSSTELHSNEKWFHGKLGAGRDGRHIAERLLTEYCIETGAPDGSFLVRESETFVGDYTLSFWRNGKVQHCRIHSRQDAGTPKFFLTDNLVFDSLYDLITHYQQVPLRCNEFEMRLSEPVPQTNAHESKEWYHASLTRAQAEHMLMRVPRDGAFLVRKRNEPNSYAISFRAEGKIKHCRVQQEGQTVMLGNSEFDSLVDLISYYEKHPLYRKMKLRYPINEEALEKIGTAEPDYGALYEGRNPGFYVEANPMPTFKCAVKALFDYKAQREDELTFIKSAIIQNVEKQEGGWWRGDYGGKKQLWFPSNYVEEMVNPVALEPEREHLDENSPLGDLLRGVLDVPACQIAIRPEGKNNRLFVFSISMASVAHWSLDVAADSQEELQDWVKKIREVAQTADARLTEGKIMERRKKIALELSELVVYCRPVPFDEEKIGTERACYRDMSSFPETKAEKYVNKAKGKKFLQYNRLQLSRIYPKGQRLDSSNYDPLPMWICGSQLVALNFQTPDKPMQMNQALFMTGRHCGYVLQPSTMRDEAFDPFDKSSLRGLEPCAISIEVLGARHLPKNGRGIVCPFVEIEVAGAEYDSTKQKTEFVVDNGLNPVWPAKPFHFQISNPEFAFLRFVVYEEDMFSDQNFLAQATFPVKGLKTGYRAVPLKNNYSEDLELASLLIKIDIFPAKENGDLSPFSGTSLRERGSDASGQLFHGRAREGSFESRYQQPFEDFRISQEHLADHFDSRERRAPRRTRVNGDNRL

Amino acid sequences for entries named in this document (tags omitted). A change or cut given only in a name is not applied to a line headed by its entry.
UniProt P05412, whole entry: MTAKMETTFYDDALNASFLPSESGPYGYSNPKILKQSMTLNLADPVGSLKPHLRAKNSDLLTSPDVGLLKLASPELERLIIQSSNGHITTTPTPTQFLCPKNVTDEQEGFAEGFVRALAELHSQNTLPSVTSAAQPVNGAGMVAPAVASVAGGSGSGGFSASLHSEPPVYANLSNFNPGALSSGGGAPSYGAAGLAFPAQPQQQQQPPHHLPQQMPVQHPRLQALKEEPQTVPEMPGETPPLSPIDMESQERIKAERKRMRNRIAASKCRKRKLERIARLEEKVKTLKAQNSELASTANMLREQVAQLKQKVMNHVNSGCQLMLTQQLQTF
UniProt P04792, whole entry: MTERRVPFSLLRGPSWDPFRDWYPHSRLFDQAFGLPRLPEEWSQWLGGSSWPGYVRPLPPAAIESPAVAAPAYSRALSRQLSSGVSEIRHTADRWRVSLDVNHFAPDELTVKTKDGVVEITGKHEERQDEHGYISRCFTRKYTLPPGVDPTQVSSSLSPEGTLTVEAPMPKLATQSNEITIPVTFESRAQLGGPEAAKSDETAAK
UniProt P27361, whole entry, looked up: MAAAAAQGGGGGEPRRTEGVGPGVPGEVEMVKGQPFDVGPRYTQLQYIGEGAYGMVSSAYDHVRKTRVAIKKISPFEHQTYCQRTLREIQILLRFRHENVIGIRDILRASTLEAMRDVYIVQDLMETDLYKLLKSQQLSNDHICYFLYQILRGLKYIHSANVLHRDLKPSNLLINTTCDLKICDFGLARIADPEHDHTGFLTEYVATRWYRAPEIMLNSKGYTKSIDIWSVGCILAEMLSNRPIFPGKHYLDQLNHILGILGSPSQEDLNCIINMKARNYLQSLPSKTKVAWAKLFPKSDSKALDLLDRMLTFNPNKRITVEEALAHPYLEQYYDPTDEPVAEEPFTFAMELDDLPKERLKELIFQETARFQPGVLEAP
UniProt P28482, whole entry, looked up: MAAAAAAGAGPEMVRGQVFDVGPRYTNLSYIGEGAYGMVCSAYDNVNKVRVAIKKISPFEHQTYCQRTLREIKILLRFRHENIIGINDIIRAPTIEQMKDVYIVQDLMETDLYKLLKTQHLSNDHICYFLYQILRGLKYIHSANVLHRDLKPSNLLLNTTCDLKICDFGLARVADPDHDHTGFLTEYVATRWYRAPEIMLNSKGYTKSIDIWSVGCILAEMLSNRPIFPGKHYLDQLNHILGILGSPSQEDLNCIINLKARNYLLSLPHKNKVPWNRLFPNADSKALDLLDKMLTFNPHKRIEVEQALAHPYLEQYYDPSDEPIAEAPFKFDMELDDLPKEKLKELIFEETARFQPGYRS
UniProt P07947, whole entry, looked up: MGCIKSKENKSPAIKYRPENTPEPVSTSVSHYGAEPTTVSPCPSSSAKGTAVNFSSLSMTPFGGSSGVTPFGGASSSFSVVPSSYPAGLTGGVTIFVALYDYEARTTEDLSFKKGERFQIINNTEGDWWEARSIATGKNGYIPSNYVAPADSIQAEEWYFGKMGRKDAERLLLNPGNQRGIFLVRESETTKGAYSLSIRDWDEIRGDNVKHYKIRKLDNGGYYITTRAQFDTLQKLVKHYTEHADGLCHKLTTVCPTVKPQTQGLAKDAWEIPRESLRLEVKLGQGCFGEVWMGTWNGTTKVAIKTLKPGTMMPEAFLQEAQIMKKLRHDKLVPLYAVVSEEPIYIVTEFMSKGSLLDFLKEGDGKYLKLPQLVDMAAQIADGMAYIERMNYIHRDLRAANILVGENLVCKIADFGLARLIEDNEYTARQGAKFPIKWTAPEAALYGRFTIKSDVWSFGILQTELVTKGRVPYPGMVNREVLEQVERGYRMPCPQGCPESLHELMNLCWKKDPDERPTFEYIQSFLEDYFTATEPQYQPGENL
UniProt P54646: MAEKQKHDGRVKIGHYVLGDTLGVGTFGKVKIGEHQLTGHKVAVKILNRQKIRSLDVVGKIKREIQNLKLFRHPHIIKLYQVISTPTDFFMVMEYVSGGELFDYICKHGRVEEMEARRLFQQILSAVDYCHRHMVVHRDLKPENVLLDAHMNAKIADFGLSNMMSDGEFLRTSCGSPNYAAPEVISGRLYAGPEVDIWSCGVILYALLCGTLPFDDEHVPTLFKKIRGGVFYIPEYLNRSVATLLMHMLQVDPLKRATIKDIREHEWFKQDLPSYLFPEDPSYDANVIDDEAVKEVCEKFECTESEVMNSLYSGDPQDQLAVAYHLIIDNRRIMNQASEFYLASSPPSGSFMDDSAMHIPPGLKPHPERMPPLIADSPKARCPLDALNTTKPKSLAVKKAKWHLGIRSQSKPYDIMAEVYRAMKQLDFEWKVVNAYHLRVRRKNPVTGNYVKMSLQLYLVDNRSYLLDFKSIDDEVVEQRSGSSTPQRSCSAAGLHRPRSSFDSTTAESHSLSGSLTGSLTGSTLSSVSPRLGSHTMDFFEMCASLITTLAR
UniProt P04637, whole entry, looked up: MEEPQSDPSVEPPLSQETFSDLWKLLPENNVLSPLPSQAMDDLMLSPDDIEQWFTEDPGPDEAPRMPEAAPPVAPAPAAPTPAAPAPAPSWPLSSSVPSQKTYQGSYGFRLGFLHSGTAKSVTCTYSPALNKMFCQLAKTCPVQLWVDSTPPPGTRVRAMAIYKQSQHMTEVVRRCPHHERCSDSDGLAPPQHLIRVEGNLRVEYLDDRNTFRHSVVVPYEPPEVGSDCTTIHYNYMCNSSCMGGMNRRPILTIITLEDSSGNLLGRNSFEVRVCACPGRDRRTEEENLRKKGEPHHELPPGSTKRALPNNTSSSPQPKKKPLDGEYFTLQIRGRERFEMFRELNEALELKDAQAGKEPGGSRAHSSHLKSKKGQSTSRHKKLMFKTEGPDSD
UniProt Q05397, whole entry, looked up: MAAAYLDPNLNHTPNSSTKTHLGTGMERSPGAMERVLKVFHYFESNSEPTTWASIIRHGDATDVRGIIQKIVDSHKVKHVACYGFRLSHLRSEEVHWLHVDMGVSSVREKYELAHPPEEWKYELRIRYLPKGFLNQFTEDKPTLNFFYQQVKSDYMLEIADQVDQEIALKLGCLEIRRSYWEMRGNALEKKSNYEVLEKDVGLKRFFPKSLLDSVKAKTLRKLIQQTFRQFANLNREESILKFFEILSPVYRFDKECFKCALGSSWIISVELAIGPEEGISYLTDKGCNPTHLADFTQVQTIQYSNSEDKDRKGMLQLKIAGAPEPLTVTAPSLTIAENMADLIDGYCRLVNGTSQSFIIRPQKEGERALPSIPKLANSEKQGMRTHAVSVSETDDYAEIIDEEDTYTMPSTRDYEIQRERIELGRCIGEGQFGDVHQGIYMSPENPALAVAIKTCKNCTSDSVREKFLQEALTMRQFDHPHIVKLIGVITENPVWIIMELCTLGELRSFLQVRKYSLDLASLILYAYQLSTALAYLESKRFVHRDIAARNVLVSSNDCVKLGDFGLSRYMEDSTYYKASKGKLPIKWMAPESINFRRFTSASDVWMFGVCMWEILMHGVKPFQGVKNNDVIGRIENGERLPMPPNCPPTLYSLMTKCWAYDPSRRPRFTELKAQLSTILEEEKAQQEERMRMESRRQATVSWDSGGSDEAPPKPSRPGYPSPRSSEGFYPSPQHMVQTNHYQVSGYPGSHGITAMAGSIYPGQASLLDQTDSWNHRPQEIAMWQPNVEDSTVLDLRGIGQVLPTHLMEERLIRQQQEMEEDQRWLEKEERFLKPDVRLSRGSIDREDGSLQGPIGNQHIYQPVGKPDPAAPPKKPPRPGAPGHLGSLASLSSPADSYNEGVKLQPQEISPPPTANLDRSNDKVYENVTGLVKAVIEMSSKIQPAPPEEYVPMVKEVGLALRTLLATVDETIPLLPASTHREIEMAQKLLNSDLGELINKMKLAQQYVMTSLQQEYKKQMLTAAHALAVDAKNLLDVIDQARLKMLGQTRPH

[2] = biological target: Transcription factor Jun (Homo sapiens) (UniProt P05412)
[3] = biological target: Heat shock protein beta-1 (Homo sapiens) (UniProt P04792)
[4] = biological target: Mitogen-activated protein kinase; ERK1/ERK2 (Homo sapiens) (UniProt P27361+P28482)
[5] = biological target: T2, Nitric oxide synthase 3 (Homo sapiens) (UniProt P29474)
T2 sequence (whole entry): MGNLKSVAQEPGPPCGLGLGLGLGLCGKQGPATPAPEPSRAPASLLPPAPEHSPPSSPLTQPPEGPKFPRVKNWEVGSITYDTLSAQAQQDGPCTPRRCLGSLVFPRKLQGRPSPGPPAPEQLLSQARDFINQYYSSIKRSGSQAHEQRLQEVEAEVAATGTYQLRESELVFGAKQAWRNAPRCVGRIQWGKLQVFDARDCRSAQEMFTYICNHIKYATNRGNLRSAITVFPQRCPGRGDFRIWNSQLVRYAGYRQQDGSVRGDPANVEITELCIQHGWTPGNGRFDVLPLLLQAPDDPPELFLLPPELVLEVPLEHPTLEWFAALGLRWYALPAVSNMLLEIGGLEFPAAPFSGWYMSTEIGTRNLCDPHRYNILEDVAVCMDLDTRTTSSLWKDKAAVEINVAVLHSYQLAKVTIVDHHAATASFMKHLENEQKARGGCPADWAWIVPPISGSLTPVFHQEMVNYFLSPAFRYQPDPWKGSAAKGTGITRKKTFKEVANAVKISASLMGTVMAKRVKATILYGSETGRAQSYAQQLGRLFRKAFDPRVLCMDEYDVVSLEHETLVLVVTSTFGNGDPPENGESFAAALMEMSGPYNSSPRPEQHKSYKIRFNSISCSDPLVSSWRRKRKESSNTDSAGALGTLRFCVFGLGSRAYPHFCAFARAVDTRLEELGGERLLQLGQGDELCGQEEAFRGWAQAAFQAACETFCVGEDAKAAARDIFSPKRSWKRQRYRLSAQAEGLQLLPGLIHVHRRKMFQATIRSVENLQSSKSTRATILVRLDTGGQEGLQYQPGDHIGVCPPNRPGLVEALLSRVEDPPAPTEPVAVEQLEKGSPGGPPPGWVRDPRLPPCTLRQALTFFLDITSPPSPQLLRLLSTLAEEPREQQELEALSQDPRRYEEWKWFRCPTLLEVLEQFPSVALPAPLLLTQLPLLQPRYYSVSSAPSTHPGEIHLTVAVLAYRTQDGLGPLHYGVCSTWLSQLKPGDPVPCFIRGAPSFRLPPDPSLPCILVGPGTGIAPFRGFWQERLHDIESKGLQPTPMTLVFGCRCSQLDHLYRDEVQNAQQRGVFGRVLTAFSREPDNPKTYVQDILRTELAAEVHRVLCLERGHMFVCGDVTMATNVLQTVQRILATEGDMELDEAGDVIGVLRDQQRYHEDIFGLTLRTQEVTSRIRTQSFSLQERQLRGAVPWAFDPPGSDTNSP

[6] = biological target: Tyrosine-protein kinase Yes (Homo sapiens) (UniProt P07947)
[7] = biological target: 5'-AMP-activated protein kinase catalytic subunit alpha-2 (Homo sapiens) (UniProt P54646)
[8] = biological target: T3, Signal transducer and activator of transcription 6 (Homo sapiens) (UniProt P42226)
T3 sequence (whole entry): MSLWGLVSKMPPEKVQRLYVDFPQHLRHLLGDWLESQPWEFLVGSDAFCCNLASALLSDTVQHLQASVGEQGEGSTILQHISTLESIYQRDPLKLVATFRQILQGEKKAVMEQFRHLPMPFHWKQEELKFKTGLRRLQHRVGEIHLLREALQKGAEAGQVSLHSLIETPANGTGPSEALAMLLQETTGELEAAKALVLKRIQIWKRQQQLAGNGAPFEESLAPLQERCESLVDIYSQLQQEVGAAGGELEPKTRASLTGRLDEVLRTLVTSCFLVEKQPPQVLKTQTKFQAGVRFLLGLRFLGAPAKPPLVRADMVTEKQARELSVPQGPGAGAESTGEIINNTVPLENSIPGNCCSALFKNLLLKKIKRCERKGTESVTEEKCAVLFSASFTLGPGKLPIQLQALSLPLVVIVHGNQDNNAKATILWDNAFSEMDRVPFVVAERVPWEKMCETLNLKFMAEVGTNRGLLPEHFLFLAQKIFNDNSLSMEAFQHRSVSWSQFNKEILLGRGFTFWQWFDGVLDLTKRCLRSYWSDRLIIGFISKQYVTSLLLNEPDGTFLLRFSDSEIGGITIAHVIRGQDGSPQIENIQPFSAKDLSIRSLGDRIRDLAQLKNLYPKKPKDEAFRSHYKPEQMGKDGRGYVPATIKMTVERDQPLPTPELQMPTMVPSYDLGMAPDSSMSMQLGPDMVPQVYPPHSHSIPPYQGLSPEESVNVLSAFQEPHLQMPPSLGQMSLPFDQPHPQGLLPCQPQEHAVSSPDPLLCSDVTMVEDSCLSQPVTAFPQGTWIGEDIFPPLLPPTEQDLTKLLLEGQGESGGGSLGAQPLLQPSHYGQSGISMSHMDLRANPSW

[9] = biological target: Cellular tumor antigen p53 (Homo sapiens) (UniProt P04637)
[10] = biological target: 5'-AMP-activated protein kinase catalytic subunit alpha-2 (Homo sapiens) (UniProt P54646); remark: listed apart in the source
[11] = biological target: Focal adhesion kinase 1 (Homo sapiens) (UniProt Q05397)

In the case of CCOc1ccc(-c2nc(C(=O)NO)c3[nH]c(=O)n(-c4ccccc4OC)c3n2)cc1, the log2FC [1] was 0.7, the log2FC [2] was 0.23 and the log2FC [3] was -0.25. It also gave a log2FC [4] of 0.39, a log2FC [5] of -0.27 and a log2FC [6] of -0.41. For the same compound, the log2FC [7] was -0.02 and the log2FC [8] was 0.27.

For CCOc1ccc(-c2nc(/C(N)=N/O)c3[nH]c(=O)n(-c4ccccc4OC)c3n2)cc1, the log2FC [1] was 0.87, the log2FC [2] was 0.57 and the log2FC [9] was 0.61. The log2FC [10] was -0.04, the log2FC [11] was -0.17 and the log2FC [7] was -0.27. It also gave a log2FC [8] of -0.25.

Reference: ChEMBL document CHEMBL4359863, “Structure-guided development of purine amide, hydroxamate, and amidoxime for the inhibition of non-small cell lung cancer” (Eur J Med Chem, 2019)
